What was measured:
[1] = system: NIH-3T3 grafted tumors expressing ALK^WT; assay: In vivo drug treatment of NIH-3T3 grafted tumors expressing ALK^WT in SCID mice; conditions: 100 mg/kg/day, bioluminescence
[2] = system: NIH-3T3 grafted tumors expressing EML4-ALK; assay: In vivo drug treatment of NIH-3T3 grafted tumors expressing EML4-ALK in SCID mice; conditions: 100 mg/kg/day, bioluminescence
[3] = system: NIH-3T3 grafted tumors expressing ALK^F1174L; assay: In vivo drug treatment of NIH-3T3 grafted tumors expressing ALK^F1174L in SCID mice; conditions: 100 mg/kg/day, bioluminescence
[4] = system: metastatic melanoma with ALK^ATI expression; assay: Compassionate use of crizotinib in a patient with metastatic melanoma with ALK^ATI expression; format: in vivo, human; conditions: one patient (MM-382); within 6 weeks of therapy

## C[C@@H](Oc1cc(-c2cnn(C3CCNCC3)c2)cnc1N)c1c(Cl)ccc(F)c1Cl [crizotinib]
[1]
  sensitivity to crizotinib in vivo: sensitivity
[2]
  sensitivity to crizotinib in vivo: sensitivity
[3]
  sensitivity to crizotinib in vivo: sensitivity
[4]
  symptomatic response: marked symptomatic improvement
  tumor response (CT): tumor shrinkage

From patent publication US10190104B2, “Isoform of anaplastic lymphoma kinase and its uses” (Memorial Sloan-Kettering Cancer Center, priority 2014, dated 2019)
